How the values were obtained:
EV-A71 2A protease = molecular target: T1, EV-A71 2A protease (Human enterovirus 71, UniProt Q66478); assay type: biochemical; settings: read-out: IC50 against EV-A71 2A protease
T1 sequence (Q66478 863-1012 limits assumed): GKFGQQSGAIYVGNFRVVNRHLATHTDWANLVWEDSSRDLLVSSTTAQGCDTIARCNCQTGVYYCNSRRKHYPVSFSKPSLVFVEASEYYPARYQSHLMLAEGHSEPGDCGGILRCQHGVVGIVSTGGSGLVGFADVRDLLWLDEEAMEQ

Protein sequences, listed by entry. Tags and fused reporters are not part of them. Residues count along the entry.
UniProt Q66478, 1549-1731: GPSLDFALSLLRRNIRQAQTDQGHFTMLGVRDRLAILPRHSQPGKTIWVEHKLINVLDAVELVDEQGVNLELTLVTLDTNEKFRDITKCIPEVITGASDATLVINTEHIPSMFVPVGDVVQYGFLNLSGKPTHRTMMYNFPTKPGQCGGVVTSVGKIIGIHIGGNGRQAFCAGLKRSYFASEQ

EV-A71 3C protease = EV-A71 3C protease (Human enterovirus 71, UniProt Q66478); assay type: biochemical; settings: read-out: IC50 against EV-A71 3C protease

Substance | IC50 (EV-A71 2A protease) [µM] | IC50 (EV-A71 3C protease) [µM]
calpain inhibitor II [compound 61] | > 20 | > 20
calpain inhibitor XII [compound 62] | > 20 | > 20
